Reference: US20220363718A1 (Bicycle, published 2022)

Chains of the proteins cited; added tags and fusions are not shown. A line that says so, or that is headed by a name, gives the form on record, which may keep a tag or linker.
Biotinylated human TSLP (hTSLP(29-159)-Avi), one chain, as listed by the source limits assumed: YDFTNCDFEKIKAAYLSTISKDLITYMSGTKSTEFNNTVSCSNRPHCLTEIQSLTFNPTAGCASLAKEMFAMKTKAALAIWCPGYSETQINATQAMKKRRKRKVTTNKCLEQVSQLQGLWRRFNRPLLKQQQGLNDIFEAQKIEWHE

Columns and labels:
[1] = target: T1, Biotinylated human TSLP (hTSLP(29-159)-Avi) (human, biotinylated (C-terminal Avi-tag)); assay: SPR, biotinylated hTSLP on streptavidin chip, peptide injected
T1 construct: also called thymic stromal lymphopoietin

[2] = target: T2, Biotinylated human TSLP (human, biotinylated); assay: SPR, biotinylated hTSLP on streptavidin chip
T2 construct: also called hTSLP; thymic stromal lymphopoietin

- Kd [1]: 0.071 µM
Binder: SEAQETCDWHWEYDCWLSC (3 Cys cyclised with TATA) [Example 214]

- Kd [1]: 0.15 µM
Binder: ACDWQWEYDCWLSCDPN (3 Cys cyclised with TATA) [Example 205]

- Kd [2]: 0.14 µM
Binder: KDNRVDCRDLDPWTCSSWWLCA (3 Cys on TATA) [Example 172]

- Kd [1]: 0.066 µM
Binder: CDWHWEYDCWLSCAPDHLP (3 Cys cyclised with TATA) [Example 224]

- Kd [1]: 0.12 µM
Binder: ACDWHWEYDCWLSCYDNEMSA (3 Cys cyclised with TATA) [Example 213]

- Kd [2]: 0.55 µM
Binder: CQWLEDCWRGWC (N-term acetyl; 3 Cys on TATA) [Example 140]

- Kd [2]: 0.15 µM
Binder: DNHCHWLDDCWRGFCA (3 Cys on TATA) [Example 97]

- Kd [1]: 0.076 µM
Binder: CDWHWEYDCWLSCDPSSKQ (3 Cys cyclised with TATA) [Example 226]

- Kd [2]: 0.12 µM
Binder: DPPKPRCQWLEDCWRGFCA (3 Cys on TATA) [Example 87]

- Kd [2]: 0.12 µM
Binder: SPTCLWLDDCWRGFCA (3 Cys on TATA) [Example 85]

- Kd [1]: 0.14 µM
Binder: ACDWNWSYDCWLPCANT (3 Cys cyclised with TATA) [Example 207]

- Kd [1]: 0.14 µM
Binder: GNIKKSCDWHWEYDCWLSCA (3 Cys cyclised with TATA) [Example 211]

- Kd [1]: 0.55 µM
B1: Example 219 (peptide)
peptide: CDWHWEYDCWLSC
modifications: N-terminal group R^7 (shown only as drawing CHEM-US-00008); 3 Cys cyclised with TATA

- Kd [2]: 0.066 µM
Binder: ACRDLDPWTCSSWWLCANV (3 Cys on TATA) [Example 186]

- Kd [2]: 0.15 µM
Binder: HPNCDWLDDCWRGFCA (3 Cys on TATA) [Example 98]

- Kd [1]: 0.089 µM
Binder: ACDWHWEYDCWLSCEPETGQA (3 Cys cyclised with TATA) [Example 221]

- Kd [2]: 0.069 µM
Binder: DDEIMQCQWLEDCWRGFCA (3 Cys on TATA) [Example 64]

- Kd [2]: 0.12 µM
Binder: YGACVDLDPWTCEQWWLCA (3 Cys on TATA) [Example 166]

- Kd [1]: 0.071 µM
Binder: ERNCIWDWKYDCWLGCA (3 Cys cyclised with TATA) [Example 225]

- Kd [2]: 0.084 µM
Binder: EVDTYPCRDLDPWTCSSWWLCA (3 Cys on TATA) [Example 192]

One block for each binder: values may come before it.
